Read-outs that look alike come from different tables or passages of the source. One block for each binder: values may come before it.
Key:
[1] = target: T1, human B7H3-2IgG-his (human, UniProt Q5ZPR3-2 29-245); test: BLI (Fortibio), antibody on ProA sensor, antigen 200-1.5625 nM, 1:1 model
T1 construct: range 29-245; The range 29-245 counts on NCBI NP_001316557.1 as printed; also called Human B7H3-2Ig-his; human 2Ig B7H3
T1 sequence: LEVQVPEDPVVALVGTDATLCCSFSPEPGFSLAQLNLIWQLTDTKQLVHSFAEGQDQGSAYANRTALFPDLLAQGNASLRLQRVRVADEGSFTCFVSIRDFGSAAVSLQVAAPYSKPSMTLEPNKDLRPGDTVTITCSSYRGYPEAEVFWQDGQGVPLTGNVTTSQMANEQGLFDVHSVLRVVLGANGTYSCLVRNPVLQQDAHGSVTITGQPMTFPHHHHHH

[2] = target: T2, human B7H3-4IgG-his (human, UniProt Q5ZPR3 27-461); test: as above
T2 construct: range 27-461; Recombinant antigen expressed in HEK293F; also called human B7H3-4Ig-his; human 4Ig B7H3
T2 sequence: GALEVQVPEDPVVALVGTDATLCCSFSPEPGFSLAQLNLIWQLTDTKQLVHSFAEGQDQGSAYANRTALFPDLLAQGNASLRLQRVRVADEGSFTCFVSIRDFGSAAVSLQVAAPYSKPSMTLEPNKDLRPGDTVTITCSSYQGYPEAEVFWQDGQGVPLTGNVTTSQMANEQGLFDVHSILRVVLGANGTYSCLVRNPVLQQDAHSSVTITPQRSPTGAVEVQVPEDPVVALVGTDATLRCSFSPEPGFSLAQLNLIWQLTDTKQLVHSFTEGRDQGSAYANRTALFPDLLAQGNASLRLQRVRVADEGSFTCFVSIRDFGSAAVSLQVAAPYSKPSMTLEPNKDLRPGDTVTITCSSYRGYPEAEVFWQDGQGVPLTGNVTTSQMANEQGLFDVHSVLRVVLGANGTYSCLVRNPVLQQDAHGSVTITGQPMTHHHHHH

[3] = target: T3, monkey B7H3-4IgG-his (monkey); test: as above
T3 construct: Recombinant antigen expressed in HEK293F; also called monkey B7H3-4Ig-his
T3 chain: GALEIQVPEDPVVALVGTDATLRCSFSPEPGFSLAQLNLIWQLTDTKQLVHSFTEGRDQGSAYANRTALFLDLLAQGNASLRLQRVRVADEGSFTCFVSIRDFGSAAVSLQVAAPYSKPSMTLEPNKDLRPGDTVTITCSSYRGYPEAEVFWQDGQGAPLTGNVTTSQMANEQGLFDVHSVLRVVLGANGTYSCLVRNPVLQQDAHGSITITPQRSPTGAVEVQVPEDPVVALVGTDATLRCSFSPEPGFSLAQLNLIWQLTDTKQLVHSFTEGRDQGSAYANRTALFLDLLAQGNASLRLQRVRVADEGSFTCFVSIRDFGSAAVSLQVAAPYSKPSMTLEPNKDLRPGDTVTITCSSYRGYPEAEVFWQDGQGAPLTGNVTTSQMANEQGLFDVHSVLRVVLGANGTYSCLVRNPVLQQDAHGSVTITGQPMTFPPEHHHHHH

[4] = target: T2, human B7H3-4IgG-his; test: ELISA, antigen coated at 1 µg/mL, antibody titrated, anti-human Fc-HRP
Experimental: (§1) The plate was washed 5 times with PBST. TMB chromogenic solution was added at 100 μL/well and incubated at 37° C. for 7 min to develop color, and then the stop solution was added at 50 μL/well to terminate the reaction.

[5] = target: T3, monkey B7H3-4IgG-his; test: as above
Experimental: as §1

[6] = target: T4, human B7H1-his (human, UniProt Q9NZQ7 19-239); test: ELISA, human B7H1-his coated at 1 µg/mL, single antibody concentration, OD 450 nm
T4 construct: Bought protein

[7] = target: T5, human B7H2-his (human, UniProt O75144 19-258, limits assumed); test: ELISA, human B7H2-his coated at 1 µg/mL, single antibody concentration, OD 450 nm
T5 construct: Bought protein
T5 sequence (looked up): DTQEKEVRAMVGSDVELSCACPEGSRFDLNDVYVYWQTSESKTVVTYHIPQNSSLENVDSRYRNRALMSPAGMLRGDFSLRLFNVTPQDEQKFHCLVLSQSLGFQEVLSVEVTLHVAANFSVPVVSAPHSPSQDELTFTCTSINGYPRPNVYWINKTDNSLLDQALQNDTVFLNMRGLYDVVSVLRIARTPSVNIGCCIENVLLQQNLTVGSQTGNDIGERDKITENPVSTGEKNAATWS

[8] = target: T6, human B7-2 (human, UniProt P42081 24-245, limits assumed); test: ELISA, human B7-2 coated at 1 µg/mL, single antibody concentration, OD 450 nm
T6 construct: Bought protein
T6 sequence (looked up): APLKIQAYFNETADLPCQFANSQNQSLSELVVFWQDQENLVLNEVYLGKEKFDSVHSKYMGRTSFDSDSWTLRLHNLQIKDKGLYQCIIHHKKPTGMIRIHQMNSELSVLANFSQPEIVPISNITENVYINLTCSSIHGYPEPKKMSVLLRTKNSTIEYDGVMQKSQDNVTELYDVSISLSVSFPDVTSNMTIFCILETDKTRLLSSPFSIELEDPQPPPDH

[9] = target: T7, human B7H4-his (human, UniProt Q7Z7D3 25-258, limits assumed); test: ELISA, human B7H4-his coated at 1 µg/mL, single antibody concentration, OD 450 nm
T7 construct: Bought protein
T7 sequence (looked up): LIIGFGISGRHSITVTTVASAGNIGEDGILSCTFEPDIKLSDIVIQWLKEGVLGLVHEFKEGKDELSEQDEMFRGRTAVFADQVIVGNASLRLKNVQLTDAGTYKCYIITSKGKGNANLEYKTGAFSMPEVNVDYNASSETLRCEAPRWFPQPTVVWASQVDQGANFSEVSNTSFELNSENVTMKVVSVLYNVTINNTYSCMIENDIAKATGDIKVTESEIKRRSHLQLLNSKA

[10] = target: T8, human B7-1 (human, UniProt P33681 35-242); test: ELISA, human B7-1 coated at 1 µg/mL, single antibody concentration, OD 450 nm
T8 construct: Bought protein
T8 sequence (looked up): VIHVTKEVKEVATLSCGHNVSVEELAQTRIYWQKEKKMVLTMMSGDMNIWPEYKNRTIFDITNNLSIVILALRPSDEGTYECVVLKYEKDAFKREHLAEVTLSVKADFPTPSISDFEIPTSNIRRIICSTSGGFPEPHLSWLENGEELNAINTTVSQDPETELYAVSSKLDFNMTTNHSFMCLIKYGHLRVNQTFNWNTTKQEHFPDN

[11] = target: T2, human B7H3-4IgG-his; test: BLI (Fortibio); reference human B7H3-2Ig-his
[12] = target: T8, human B7-1; test: ELISA, human B7-1 coated at 1 µg/mL, single antibody concentration, OD 450 nm; remark: listed apart in the source
[13] = target: T7, human B7H4-his; test: ELISA, human B7H4-his coated at 1 µg/mL, single antibody concentration, OD 450 nm; remark: listed apart in the source
[14] = target: T4, human B7H1-his; test: ELISA, human B7H1-his coated at 1 µg/mL, single antibody concentration, OD 450 nm; remark: listed apart in the source
[15] = target: T5, human B7H2-his; test: ELISA, human B7H2-his coated at 1 µg/mL, single antibody concentration, OD 450 nm; remark: listed apart in the source
[16] = target: T6, human B7-2; test: ELISA, human B7-2 coated at 1 µg/mL, single antibody concentration, OD 450 nm; remark: listed apart in the source

- Kd [1]: 0.41 nM
- Kd [2]: 0.043 nM
- Kd [3]: 0.25 nM
- EC50 [4]: 0.0436 nM
- EC50 [5]: 0.0358 nM
- binding result [6]: no binding (tested: 10 µg/mL)
- binding result [7]: no binding (tested: 10 µg/mL)
- binding result [8]: no binding (tested: 10 µg/mL)
- binding result [9]: no binding (tested: 10 µg/mL)
- binding result [10]: no binding (tested: 10 µg/mL)
- dynamic affinity fold, human B7H3-4Ig-his/human B7H3-2Ig-his [11]: 9.5 fold
B1: anti-B7H3 antibody 1D1-01 (antibody, human IgG1, kappa, V domains shown)
VH: EGQLVESGGGLVQPGGSLRLSCAASGFTISSYWMNWVRQAPGKGLEWVANIKQDGSEKYYVDSVQGRFTISRDNAKNSLYLQMNSLRAEDTAVYYCARRMYSSGWYWGAFDMWGQGTMVTVSS
VL: EIVLTQSPGTLSLSPGERATLSCRASQSVSSIYLAWNQQKPGQAPRLLIYGTFKRATGIPDRFSGSGSGTDFTLTISSLEPEDFAVYYCQQYDTSSITFGQGTRLEIKR

- Kd [1]: 7.8 nM
- Kd [2]: 0.24 nM
- Kd [3]: 0.47 nM
- EC50 [4]: 0.0175 nM
- EC50 [5]: 0.0277 nM
- binding result [12]: no binding (tested: 10 µg/mL)
- binding result [13]: no binding (tested: 10 µg/mL)
- binding result [14]: no binding (tested: 10 µg/mL)
- binding result [15]: no binding (tested: 10 µg/mL)
- dynamic affinity fold, human B7H3-4Ig-his/human B7H3-2Ig-his [11]: 32.5 fold
- binding result [16]: no binding (tested: 10 µg/mL)
B2: anti-B7H3 antibody 2E3-02 (antibody, human IgG1, kappa, V domains shown)
VH: EVQLLESGGGLVQPGGSLRLSCAASGFTFSSYAMNWVRQAPGKGLEWVSGISGSGGSTYYADSVQGRFTISRDNSKNTLYLQMNSLRAEDTAVYYCAKARSGYDYFFDYWGQGTLVTVSS
VL: EIVLTQSPGTLSLSPGERATLSCRASQRISSSFLAWYQQKPGQAPSLLIYGASSRATGIPDRFSGSGSGTDFTLTISSLEPEDFAVFYCQQYSNSPLTFGGGTKVEIKR

From patent publication US20240108745A1 (MEDILINK THERAPEUTICS SUZHOU, published 2024)
